Assay results taken from PMC7611940, “A Conformation Selective Mode of Inhibiting SRC Improves Drug Efficacy and Tolerability” (Cancer Research, 2021).

Chains of the proteins cited; added tags and fusions are not shown. Lines headed by an entry give the natural chain unless they say otherwise; changes in a name come on top.
UniProt P36897: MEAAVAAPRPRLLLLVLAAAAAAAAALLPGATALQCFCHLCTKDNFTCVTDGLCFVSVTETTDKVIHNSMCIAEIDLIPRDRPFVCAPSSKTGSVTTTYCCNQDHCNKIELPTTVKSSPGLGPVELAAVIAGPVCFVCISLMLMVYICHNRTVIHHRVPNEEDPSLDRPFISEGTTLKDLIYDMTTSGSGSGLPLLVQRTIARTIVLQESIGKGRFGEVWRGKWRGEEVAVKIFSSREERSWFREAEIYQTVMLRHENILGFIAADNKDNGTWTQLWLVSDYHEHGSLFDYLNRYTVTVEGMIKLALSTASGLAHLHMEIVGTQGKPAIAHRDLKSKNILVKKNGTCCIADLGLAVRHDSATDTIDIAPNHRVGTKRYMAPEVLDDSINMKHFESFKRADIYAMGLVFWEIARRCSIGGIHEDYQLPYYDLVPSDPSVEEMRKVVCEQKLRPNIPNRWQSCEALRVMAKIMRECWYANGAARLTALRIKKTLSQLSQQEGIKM
UniProt Q9HAZ1: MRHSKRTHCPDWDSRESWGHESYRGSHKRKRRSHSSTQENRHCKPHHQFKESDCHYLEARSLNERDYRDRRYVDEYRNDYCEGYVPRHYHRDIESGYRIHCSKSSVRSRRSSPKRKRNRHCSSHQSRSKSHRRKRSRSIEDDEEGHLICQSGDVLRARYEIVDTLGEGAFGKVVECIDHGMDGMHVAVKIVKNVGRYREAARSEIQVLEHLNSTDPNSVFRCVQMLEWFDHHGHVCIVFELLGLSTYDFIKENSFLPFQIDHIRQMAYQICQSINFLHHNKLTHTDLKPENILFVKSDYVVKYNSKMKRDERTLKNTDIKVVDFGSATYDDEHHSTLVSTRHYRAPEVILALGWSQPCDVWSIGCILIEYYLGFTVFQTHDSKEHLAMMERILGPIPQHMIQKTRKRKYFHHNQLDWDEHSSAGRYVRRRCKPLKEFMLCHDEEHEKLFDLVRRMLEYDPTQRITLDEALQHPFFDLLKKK
UniProt P45983: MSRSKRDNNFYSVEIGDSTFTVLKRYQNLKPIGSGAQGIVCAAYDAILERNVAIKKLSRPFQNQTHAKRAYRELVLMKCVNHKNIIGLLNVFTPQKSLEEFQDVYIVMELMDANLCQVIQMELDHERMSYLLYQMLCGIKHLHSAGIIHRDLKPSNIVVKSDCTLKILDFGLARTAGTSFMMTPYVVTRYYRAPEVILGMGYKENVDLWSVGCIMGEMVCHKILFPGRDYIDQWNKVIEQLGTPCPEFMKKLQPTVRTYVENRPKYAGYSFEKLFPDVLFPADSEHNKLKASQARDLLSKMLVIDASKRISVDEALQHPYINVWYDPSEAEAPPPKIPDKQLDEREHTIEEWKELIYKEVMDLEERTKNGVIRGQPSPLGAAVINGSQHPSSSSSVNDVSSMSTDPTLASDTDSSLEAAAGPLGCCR
UniProt Q9NRM7: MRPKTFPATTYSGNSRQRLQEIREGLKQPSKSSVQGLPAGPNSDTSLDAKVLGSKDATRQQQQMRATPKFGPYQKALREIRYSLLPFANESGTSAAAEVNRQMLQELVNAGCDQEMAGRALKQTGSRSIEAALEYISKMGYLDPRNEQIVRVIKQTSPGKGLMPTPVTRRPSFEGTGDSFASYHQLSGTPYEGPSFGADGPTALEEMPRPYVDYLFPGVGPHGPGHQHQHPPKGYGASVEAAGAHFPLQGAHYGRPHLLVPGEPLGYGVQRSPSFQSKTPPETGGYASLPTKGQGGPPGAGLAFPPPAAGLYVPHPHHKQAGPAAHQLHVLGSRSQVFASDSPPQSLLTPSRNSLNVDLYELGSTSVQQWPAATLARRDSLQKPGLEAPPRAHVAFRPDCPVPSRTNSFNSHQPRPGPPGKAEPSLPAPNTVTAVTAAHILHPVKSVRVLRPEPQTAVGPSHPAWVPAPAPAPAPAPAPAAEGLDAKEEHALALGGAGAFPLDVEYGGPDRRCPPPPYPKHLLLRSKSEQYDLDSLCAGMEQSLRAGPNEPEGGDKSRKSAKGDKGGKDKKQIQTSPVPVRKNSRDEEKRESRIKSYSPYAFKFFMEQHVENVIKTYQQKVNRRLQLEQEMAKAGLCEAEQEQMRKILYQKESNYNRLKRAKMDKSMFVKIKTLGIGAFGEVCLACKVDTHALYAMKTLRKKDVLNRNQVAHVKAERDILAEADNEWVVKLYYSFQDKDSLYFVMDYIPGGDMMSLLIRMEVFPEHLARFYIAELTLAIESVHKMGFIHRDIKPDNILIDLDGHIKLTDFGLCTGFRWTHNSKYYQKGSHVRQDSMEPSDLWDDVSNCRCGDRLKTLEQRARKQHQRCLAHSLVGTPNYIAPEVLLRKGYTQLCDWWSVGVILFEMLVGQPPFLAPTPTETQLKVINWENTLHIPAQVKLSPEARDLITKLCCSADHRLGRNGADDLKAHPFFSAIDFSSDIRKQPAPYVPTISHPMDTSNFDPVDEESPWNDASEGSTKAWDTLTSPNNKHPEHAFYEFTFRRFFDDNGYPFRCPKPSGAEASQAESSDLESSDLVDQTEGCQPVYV
UniProt Q9BYP7: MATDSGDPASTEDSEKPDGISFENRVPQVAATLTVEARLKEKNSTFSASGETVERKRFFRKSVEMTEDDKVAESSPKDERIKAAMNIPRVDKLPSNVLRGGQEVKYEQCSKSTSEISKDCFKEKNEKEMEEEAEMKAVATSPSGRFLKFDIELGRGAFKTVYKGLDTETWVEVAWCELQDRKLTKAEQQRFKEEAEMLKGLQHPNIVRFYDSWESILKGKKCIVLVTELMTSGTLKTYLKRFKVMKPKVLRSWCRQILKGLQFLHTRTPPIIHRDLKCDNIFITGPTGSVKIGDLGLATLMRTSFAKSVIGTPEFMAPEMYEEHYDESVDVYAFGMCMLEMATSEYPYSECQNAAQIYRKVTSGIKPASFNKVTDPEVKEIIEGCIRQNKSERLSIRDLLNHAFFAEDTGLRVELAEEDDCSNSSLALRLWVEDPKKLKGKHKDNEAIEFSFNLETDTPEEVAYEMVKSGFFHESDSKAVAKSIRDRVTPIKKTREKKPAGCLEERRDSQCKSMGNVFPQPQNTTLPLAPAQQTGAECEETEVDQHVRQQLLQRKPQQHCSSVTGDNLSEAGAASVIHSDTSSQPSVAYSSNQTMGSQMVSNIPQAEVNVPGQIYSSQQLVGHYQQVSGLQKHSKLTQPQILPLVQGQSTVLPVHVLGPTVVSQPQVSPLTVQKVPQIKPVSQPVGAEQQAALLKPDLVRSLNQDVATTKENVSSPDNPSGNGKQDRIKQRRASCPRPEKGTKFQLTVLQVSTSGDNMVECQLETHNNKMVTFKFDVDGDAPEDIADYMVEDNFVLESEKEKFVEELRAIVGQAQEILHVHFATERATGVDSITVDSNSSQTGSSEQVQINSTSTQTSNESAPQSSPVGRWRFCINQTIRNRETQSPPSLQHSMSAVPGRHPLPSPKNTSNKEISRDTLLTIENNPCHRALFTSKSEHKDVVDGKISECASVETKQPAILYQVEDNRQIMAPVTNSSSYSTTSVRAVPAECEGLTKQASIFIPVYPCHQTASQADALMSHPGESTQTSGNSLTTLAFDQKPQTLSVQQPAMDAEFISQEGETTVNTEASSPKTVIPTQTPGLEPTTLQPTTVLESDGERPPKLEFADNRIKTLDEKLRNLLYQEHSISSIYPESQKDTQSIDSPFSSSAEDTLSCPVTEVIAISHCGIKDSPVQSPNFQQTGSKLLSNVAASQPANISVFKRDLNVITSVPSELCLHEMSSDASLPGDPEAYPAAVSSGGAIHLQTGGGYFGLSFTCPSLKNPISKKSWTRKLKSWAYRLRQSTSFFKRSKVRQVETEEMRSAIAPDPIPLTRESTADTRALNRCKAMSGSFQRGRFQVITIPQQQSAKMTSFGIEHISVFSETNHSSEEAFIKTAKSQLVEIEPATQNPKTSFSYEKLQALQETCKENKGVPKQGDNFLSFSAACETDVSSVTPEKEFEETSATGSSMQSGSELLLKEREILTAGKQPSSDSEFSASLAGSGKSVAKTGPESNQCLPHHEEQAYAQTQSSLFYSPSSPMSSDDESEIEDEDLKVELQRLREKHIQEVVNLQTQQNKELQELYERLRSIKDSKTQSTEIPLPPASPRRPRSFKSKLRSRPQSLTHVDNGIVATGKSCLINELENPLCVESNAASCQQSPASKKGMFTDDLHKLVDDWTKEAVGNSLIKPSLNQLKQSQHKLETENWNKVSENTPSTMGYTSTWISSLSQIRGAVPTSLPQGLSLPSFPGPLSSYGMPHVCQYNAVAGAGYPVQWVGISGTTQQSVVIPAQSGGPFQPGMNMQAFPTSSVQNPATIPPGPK
UniProt Q6IQ55, whole entry: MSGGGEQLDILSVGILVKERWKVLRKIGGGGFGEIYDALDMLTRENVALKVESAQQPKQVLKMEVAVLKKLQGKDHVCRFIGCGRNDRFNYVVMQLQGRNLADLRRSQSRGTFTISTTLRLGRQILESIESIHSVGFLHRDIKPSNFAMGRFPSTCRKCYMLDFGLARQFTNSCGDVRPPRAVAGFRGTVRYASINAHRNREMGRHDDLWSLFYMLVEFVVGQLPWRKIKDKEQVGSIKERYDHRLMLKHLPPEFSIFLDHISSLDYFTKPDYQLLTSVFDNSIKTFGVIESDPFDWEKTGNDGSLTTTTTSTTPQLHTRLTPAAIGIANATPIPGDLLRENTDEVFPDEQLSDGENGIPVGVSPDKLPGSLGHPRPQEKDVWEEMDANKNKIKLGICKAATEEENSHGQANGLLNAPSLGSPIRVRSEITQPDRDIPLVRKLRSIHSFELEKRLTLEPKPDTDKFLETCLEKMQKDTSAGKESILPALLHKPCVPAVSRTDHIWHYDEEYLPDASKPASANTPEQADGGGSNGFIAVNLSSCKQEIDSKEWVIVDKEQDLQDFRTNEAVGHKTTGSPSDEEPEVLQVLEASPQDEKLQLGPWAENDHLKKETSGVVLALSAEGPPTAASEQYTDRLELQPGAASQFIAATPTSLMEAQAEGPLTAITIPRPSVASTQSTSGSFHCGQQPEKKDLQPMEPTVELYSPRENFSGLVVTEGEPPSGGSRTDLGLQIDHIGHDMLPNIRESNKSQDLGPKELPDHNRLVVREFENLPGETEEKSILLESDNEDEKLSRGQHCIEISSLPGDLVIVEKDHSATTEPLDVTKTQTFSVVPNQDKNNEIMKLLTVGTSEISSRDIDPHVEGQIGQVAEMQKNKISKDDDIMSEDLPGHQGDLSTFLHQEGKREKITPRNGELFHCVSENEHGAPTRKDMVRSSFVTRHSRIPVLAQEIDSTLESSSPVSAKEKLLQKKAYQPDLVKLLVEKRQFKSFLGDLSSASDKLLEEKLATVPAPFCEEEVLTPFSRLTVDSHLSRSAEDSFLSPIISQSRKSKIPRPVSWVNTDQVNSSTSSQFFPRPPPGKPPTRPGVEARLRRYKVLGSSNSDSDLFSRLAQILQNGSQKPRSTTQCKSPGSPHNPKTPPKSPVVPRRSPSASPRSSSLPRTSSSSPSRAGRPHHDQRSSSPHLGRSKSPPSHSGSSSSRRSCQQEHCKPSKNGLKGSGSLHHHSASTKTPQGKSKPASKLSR
UniProt Q8TDX7: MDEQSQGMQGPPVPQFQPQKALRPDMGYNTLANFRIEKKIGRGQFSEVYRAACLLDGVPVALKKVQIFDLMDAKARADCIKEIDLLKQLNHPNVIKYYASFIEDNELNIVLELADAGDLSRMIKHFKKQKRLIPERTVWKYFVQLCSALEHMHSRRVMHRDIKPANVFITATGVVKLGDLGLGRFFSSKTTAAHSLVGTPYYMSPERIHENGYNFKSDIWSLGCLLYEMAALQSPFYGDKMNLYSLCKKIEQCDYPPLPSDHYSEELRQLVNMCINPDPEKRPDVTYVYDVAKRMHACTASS
UniProt P51817: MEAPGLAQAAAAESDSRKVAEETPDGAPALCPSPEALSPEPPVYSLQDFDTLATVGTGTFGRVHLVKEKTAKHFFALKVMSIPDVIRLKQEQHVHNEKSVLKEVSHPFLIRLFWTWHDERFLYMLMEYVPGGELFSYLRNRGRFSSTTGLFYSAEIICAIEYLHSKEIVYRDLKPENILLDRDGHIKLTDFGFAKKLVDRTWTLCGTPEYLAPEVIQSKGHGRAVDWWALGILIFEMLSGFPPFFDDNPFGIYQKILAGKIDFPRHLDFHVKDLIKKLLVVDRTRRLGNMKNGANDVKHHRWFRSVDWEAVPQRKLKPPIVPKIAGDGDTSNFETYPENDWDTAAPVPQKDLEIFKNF
UniProt O15264: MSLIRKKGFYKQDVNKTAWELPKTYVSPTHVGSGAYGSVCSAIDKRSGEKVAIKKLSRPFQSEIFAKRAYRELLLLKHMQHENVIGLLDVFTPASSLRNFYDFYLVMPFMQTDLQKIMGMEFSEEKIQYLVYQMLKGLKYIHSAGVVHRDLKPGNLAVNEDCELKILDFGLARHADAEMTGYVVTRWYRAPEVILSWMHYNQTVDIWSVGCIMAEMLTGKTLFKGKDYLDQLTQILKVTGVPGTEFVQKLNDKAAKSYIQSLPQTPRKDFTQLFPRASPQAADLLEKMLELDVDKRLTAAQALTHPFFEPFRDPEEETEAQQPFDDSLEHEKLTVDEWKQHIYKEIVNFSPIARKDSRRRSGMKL

Key:
Assay in all cases: biochemical
Settings in all cases: read-out: % remaining activity
JAK3 = JAK3 (Homo sapiens, UniProt P52333)
AURKB = AURKB (Homo sapiens, UniProt Q96GD4)
DYRK2 = DYRK2 (Homo sapiens, UniProt Q92630)
TRKC = target: T1, TRKC (Homo sapiens, UniProt Q16288)
T1 construct: gene NTRK3

PLK2 = PLK2 (Homo sapiens, UniProt Q9NYY3)
TGFBR1 = TGFBR1 (Homo sapiens, UniProt P36897)
CLK4 = CLK4 (Homo sapiens, UniProt Q9HAZ1)
FGFR2 = FGFR2 (Homo sapiens, UniProt P21802)
GRK3 = GRK3 (Homo sapiens, UniProt P35626)
MAP4K5 = MAP4K5 (Homo sapiens, UniProt Q9Y4K4)
CDK16/cyclin Y = CDK16/cyclin Y (Homo sapiens, UniProt Q00536)
PKN2 = PKN2 (Homo sapiens, UniProt Q16513)
JNK1 = target: T2, JNK1 (Homo sapiens, UniProt P45983)
T2 construct: gene MAPK8

ULK2 = ULK2 (Homo sapiens, UniProt Q8IYT8)
DDR2 = DDR2 (Homo sapiens, UniProt Q16832)
RSK1 = target: T3, RSK1 (Homo sapiens, UniProt Q15418)
T3 construct: gene RPS6KA1

CSF1R = CSF1R (Homo sapiens, UniProt P07333)
MRCKa = target: T4, MRCKa (Homo sapiens, UniProt Q5VT25)
T4 construct: gene CDC42BPA

SLK = SLK (Homo sapiens, UniProt Q9H2G2)
JNK2 = target: T5, JNK2 (Homo sapiens, UniProt P45984)
T5 construct: gene MAPK9

ERBB4 = ERBB4 (Homo sapiens, UniProt Q15303)
ARAF = ARAF (Homo sapiens, UniProt P10398)
LATS2 = LATS2 (Homo sapiens, UniProt Q9NRM7)
p38-beta = target: T6, p38-beta (Homo sapiens, UniProt Q15759)
T6 construct: gene MAPK11

WNK3 = WNK3 (Homo sapiens, UniProt Q9BYP7)
MARK2 = MARK2 (Homo sapiens, UniProt Q7KZI7)
GSK3a = GSK3a (Homo sapiens, UniProt P49840)
PIM1 = PIM1 (Homo sapiens, UniProt P11309)
FLT1 = FLT1 (Homo sapiens, UniProt P17948)
TTBK2 = TTBK2 (Homo sapiens, UniProt Q6IQ55)
DYRK3 = DYRK3 (Homo sapiens, UniProt O43781)
NEK7 = NEK7 (Homo sapiens, UniProt Q8TDX7)
EGFR = EGFR (Homo sapiens, UniProt P00533)
PRKX = PRKX (Homo sapiens, UniProt P51817)
P38-delta = target: T7, P38-delta (Homo sapiens, UniProt O15264)
T7 construct: gene MAPK13

ERK1 = target: T8, ERK1 (Homo sapiens, UniProt P27361)
T8 construct: gene MAPK3

With `COc1cc(-c2nn(CCN3CCC(N(C)C)CC3)c3ncnc(N)c23)ccc1NC(=O)OC(C)(C)C` [eCF506] as the molecule, how does the remaining activity at 1 µM (JAK3) read?
The remaining activity at 1 µM was 111%.

What about the remaining activity at 1 µM (AURKB) of the same molecule?
Its remaining activity at 1 µM is 99.1%.

What about the remaining activity at 1 µM (DYRK2) of the same molecule?
The remaining activity at 1 µM was 98.2%.

And the remaining activity at 1 µM (TRKC)?
The remaining activity at 1 µM was 99.3%.

What about the remaining activity at 1 µM (PLK2) of the same molecule?
The remaining activity at 1 µM was 99.2%.

What about the remaining activity at 1 µM (TGFBR1) of the same molecule?
Its remaining activity at 1 µM is 110%.

What about the remaining activity at 1 µM (CLK4) of the same molecule?
The remaining activity at 1 µM was 101%.

What about the remaining activity at 1 µM (FGFR2) of the same molecule?
Its remaining activity at 1 µM is 110%.

What about the remaining activity at 1 µM (GRK3) of the same molecule?
Its remaining activity at 1 µM is 109%.

What about the remaining activity at 1 µM (MAP4K5) of the same molecule?
Its remaining activity at 1 µM is 81.7%.

And the remaining activity at 1 µM (CDK16/cyclin Y)?
The remaining activity at 1 µM was 90.4%.

What about the remaining activity at 1 µM (PKN2) of the same molecule?
Its remaining activity at 1 µM is 111%.

And the remaining activity at 1 µM (JNK1)?
The remaining activity at 1 µM was 106%.

What about the remaining activity at 1 µM (ULK2) of the same molecule?
Its remaining activity at 1 µM is 104%.

What about the remaining activity at 1 µM (DDR2) of the same molecule?
The remaining activity at 1 µM was 102%.

And the remaining activity at 1 µM (RSK1)?
Its remaining activity at 1 µM is 72.2%.

And the remaining activity at 1 µM (CSF1R)?
Its remaining activity at 1 µM is 103%.

What about the remaining activity at 1 µM (MRCKa) of the same molecule?
Its remaining activity at 1 µM is 97.9%.

What about the remaining activity at 1 µM (SLK) of the same molecule?
Its remaining activity at 1 µM is 102%.

What about the remaining activity at 1 µM (JNK2) of the same molecule?
Its remaining activity at 1 µM is 104%.

And the remaining activity at 1 µM (ERBB4)?
Its remaining activity at 1 µM is 4.5%.

And the remaining activity at 1 µM (ARAF)?
The remaining activity at 1 µM was 1.7%.

What about the remaining activity at 1 µM (LATS2) of the same molecule?
The remaining activity at 1 µM was 89%.

And the remaining activity at 1 µM (p38-beta)?
Its remaining activity at 1 µM is 97.4%.

And the remaining activity at 1 µM (WNK3)?
The remaining activity at 1 µM was 90.3%.

What about the remaining activity at 1 µM (MARK2) of the same molecule?
Its remaining activity at 1 µM is 99.5%.

And the remaining activity at 1 µM (GSK3a)?
The remaining activity at 1 µM was 89.2%.

And the remaining activity at 1 µM (PIM1)?
The remaining activity at 1 µM was 95.9%.

What about the remaining activity at 1 µM (FLT1) of the same molecule?
Its remaining activity at 1 µM is 106%.

What about the remaining activity at 1 µM (TTBK2) of the same molecule?
The remaining activity at 1 µM was 106%.

And the remaining activity at 1 µM (DYRK3)?
The remaining activity at 1 µM was 93%.

What about the remaining activity at 1 µM (NEK7) of the same molecule?
The remaining activity at 1 µM was 81.3%.

What about the remaining activity at 1 µM (EGFR) of the same molecule?
The remaining activity at 1 µM was 117%.

And the remaining activity at 1 µM (PRKX)?
The remaining activity at 1 µM was 98.6%.

And the remaining activity at 1 µM (P38-delta)?
Its remaining activity at 1 µM is 106%.

What about the remaining activity at 1 µM (ERK1) of the same molecule?
The remaining activity at 1 µM was 105%.
